Patent US20090258013A1 (Genentech, published 2009)

Amino acid sequences for entries named in this document (tags omitted). Chains listed by the source or under a name are the forms on record and can include a tag or linker.
UniProt Q9NQS3, other isoform, or with tags, fused parts or gaps limits assumed: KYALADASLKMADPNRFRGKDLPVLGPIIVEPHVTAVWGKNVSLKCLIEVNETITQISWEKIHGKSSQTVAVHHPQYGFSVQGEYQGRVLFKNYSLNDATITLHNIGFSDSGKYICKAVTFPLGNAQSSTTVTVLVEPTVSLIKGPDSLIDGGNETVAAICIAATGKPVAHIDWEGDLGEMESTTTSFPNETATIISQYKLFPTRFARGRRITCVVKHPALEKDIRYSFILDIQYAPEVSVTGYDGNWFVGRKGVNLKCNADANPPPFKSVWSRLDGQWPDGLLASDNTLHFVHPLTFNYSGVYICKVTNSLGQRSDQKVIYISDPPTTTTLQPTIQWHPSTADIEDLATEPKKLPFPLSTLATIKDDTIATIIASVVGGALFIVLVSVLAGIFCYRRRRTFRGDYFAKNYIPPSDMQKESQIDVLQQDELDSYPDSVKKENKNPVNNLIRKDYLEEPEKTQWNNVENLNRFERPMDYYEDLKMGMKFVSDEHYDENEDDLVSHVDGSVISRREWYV

Tests used:
[1] = target: T1, gD-tagged full-length PVRL3 expressed on stably transfected CHO cells (UniProt Q9NQS3 58-549, limits assumed); assay: flow cytometry, biotinylated Fc-ligand on receptor-expressing CHO cells (+++ MFI = 1000-4999)
T1 construct: whole, on cells
Text: Fc fusion proteins were biotinylated via amine coupling using NHS-PEO4-Biotin (Pierce) in PBS. Binding of biotin-ligands was detected using phycoerythrin-conjugated streptavidin (Caltag). Mouse monoclonal antibody to gD tag (Genentech) was conjugated to AlexaFluor 647 (Invitrogen). Antibodies were conjugated to appropriate fluor labels using standard techniques. Cells were stained per the manufacturer's instructions. Prior to staining, cells were blocked with appropriate sera or purified IgG. Acquisition was performed on a FACSCalibur (BD Biosciences) and analyzed with JoFlo software (Tree Star, Inc.). Forward and side scatter gated viable cells.
(§1) Receptors were expressed on CHO cells, and all ligands were -Fc constructs. MFI was determined by flow cytometry with biotinylated Fc-ligands, after gating on receptor-positive cells. Binding affinity (Kd) was determined by competition radioligand binding assay. Kd is indicated (nM) and is the average value from at least 3 independent assays, except where indicated (*).

[2] = target: T1, gD-tagged full-length PVRL3 expressed …; assay: competition radioligand binding, 125I Fc-ligand on receptor-expressing CHO cells, Scatchard
Method: Plasmids were transfected into CHO cells using Lipofectamine LTX (Invitrogen). Expression of gD-tagged proteins was verified by flow cytometry using the Alexa-647 anti-gD conjugate. Stably-transfected cell lines were sorted twice by FACS for purity before use. Fc-fusion proteins constructed as described above were iodinated (¹²⁵I) using the Iodogen method. Binding studies were carried out on stable transfectants in triplicate with 0.1-3 nM iodinated ligand. […] Cell suspensions were harvested onto nitrocellulose membranes (Millipore) and washed extensively.
as §1

MFI [1]: 1000 to 5000 mfi | Kd [2]: 3 to 13 nM
B1: PVRL2-Fc (amino acids 1-360 of PVR-like protein 2 fused to the Fc region of human IgG1) (Fc fusion, UniProt Q92692 32-360, looked up)
chain: QDVRVQVLPEVRGQLGGTVELPCHLLPPVPGLYISLVTWQRPDAPANHQNVAAFHPKMGPSFPSPKPGSERLSFVSAKQSTGQDTEAELQDATLALHGLTVEDEGNYTCEFATFPKGSVRGMTWLRVIAKPKNQAEAQKVTFSQDPTTVALCISKEGRPPARISWLSSLDWEAKETQVSGTLAGTVTVTSRFTLVPSGRADGVTVTCKVEHESFEEPALIPVTLSVRYPPEVSISGYDDNWYLGRTDATLSCDVRSNPEPTGYDWSTTSGTFPTSAVAQGSQLVIHAVDSLFNTTFVCTVTNAVGMGRAEQVIFVRETPNTAGAGATGG
notes: range 1-360; also called nectin-2; not shown: Fc region of human IgG1
